Ratio and IC50 data for four molecules are collected here from ChEMBL document CHEMBL1135409, “Structure-activity relationships of a novel class of endothelin-A receptor antagonists and discovery of potent and selective receptor antagonist, 2-(benzo[1,3]dioxol-5-yl)-6-isopropyloxy-4-(4-methoxyphenyl)-2H-chromene-3-carboxylic acid (S-1255). 1. Study on structure-activity relationships and …” (J Med Chem, 2002).

Amino acid sequences for entries named in this document (tags omitted).
UniProt P26684, whole entry: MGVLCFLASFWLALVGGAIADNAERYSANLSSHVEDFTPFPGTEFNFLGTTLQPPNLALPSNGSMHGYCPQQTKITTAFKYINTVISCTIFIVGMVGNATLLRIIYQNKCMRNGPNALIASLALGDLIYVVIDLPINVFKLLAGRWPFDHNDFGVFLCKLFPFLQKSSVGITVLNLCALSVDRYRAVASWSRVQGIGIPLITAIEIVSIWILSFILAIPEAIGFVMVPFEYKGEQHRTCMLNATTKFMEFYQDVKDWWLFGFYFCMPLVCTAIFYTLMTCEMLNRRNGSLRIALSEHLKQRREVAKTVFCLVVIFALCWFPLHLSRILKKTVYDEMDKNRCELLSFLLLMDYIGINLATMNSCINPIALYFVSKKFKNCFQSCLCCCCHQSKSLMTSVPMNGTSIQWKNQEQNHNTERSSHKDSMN

Experiment [1] is described as follows: Ratio of inhibitory concentrations at ET-B receptor relative to that of ET-A receptor.
The target of experiment [2] is Endothelin-1 receptor (Rattus norvegicus, UniProt P26684). In words: Binding affinity for endothelin A receptor by inhibition of [125I]ET1 binding in rat aorta smooth muscle cells. The format is tissue-based.
Experiment [3] concerns the target T1, Endothelin receptor type B (Sus scrofa, UniProt P35463).
T1 sequence (P35463 whole entry): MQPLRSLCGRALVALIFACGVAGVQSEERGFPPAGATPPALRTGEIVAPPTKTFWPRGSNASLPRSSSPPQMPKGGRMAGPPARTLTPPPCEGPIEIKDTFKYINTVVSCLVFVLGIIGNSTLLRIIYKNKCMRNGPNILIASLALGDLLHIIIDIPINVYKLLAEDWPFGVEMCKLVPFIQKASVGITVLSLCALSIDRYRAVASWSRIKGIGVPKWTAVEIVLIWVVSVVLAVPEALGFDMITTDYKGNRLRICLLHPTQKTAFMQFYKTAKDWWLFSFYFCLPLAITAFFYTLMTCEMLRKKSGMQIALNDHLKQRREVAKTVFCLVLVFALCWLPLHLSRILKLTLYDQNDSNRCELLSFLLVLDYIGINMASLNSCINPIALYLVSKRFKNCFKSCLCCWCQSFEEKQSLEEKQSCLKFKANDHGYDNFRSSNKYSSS
In words: Binding affinity to endothelin B receptor measured by inhibition of [125I]ET-3 binding recombinant pig ET-B receptor expressed in COS-7 cells. Format: cell-based. Put shortly: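 COS cells transfected with porcine ETB cDNA, in Hank's solution with 20 mM HEPES and protease inhibitors. Stopped by filtration on GF/C filters presoaked in 1% polyethylenimine, washed with 50 mM Tris-HCl pH 7.4, then counted. Nonspecific binding taken with 0.1 μM ET-3.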

Turning to `COc1ccc(C2=C(C(=O)O)C(c3ccc4c(c3)OCO4)Oc3ccc(OC(C)C)cc32)cc1` (stereo unspecified), the Ratio in experiment [1] was found to be 350.

With `COc1ccc(C2=C(C(=O)O)[C@H](c3ccc4c(c3)OCO4)Oc3ccc(OC(C)C)cc32)cc1`, the half-inhibitory concentration (IC50) in experiment [2] turned out to be 15 nM; in experiment [3] it was 1500 nM. Also, in experiment [1], the Ratio was determined as 100.

For `COc1ccc(C2=C(C(=O)O)[C@@H](c3ccc4c(c3)OCO4)Oc3ccc(OC(C)C)cc32)cc1`, the Ratio in experiment [1] was determined as 630.

Turning to `CCCCOC1=C(C(=O)O)C(c2ccc3c(c2)OCO3)Oc2cccc(OCCC)c21` (stereo unspecified), in experiment [2], the IC50 is 3400 nM.

The IC50 is the midpoint of a concentration-inhibition curve.
